Results published in ChEMBL document CHEMBL4732138, “Evaluation of the Structure-Activity Relationship of Microtubule-Targeting 1,2,4-Triazolo[1,5-a]pyrimidines Identifies New Candidates for Neurodegenerative Tauopathies” (J Med Chem, 2021).

The chains behind the UniProt entries cited, without tags or fusion partners. Where a name states a change or a piece, a line headed by the entry shows the natural chain unless it says otherwise.
UniProt P68371: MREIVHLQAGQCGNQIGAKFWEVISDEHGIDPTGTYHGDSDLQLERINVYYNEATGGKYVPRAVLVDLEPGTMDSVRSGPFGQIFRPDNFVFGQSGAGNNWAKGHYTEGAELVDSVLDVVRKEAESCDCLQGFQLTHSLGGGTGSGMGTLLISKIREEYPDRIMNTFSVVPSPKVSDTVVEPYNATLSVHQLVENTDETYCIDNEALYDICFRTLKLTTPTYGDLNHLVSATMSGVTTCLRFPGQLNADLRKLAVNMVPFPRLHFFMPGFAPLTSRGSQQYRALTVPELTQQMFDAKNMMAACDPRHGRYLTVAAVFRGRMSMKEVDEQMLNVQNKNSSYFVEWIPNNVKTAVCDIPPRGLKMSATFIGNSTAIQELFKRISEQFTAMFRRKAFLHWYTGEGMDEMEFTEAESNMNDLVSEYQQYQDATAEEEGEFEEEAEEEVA
UniProt Q9H4B7: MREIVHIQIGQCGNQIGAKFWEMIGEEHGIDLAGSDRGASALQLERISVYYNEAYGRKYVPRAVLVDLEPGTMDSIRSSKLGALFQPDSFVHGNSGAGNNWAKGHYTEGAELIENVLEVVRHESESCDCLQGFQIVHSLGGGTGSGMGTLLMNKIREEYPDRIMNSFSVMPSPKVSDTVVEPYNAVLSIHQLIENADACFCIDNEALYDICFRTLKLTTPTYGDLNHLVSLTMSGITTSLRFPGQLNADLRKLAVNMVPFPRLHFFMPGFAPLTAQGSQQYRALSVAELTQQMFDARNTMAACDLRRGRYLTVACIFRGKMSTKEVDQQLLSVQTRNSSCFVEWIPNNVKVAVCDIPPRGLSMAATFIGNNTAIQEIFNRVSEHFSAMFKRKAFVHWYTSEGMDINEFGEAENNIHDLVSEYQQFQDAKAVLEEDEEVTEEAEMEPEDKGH
UniProt P0DPH7: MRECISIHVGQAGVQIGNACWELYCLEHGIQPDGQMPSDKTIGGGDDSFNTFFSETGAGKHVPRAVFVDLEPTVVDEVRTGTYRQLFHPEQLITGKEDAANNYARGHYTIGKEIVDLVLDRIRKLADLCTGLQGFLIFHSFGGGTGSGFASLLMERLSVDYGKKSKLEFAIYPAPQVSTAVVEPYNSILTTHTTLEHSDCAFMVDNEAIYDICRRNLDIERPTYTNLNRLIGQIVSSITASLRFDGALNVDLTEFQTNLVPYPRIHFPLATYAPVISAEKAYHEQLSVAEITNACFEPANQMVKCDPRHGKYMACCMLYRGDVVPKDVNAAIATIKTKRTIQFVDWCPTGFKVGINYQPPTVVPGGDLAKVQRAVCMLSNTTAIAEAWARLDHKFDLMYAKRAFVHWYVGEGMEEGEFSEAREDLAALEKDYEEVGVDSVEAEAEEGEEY
UniProt P68366: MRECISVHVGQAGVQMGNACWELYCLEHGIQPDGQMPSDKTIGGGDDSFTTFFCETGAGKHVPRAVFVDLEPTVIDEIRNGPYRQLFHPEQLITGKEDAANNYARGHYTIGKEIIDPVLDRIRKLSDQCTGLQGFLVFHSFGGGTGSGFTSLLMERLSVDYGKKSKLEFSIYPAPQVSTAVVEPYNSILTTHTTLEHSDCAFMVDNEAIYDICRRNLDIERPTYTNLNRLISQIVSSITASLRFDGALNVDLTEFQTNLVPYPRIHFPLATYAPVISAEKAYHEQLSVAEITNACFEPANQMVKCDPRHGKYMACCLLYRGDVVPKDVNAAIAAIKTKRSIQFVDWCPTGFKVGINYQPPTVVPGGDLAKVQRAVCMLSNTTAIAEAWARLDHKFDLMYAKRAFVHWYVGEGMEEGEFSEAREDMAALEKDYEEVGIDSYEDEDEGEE
UniProt Q13509: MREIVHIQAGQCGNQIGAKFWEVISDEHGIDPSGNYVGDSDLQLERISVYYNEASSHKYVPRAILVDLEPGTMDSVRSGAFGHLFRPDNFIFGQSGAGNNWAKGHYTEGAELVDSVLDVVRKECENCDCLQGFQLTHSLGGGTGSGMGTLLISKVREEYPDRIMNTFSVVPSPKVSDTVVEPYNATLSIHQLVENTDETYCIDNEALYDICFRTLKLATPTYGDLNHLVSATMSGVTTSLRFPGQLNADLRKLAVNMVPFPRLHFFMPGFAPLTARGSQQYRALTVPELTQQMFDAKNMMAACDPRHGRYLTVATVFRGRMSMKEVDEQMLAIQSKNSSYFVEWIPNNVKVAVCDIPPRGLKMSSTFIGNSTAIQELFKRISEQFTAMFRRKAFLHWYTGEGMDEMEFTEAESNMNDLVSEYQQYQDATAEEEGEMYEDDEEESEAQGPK
UniProt P04350: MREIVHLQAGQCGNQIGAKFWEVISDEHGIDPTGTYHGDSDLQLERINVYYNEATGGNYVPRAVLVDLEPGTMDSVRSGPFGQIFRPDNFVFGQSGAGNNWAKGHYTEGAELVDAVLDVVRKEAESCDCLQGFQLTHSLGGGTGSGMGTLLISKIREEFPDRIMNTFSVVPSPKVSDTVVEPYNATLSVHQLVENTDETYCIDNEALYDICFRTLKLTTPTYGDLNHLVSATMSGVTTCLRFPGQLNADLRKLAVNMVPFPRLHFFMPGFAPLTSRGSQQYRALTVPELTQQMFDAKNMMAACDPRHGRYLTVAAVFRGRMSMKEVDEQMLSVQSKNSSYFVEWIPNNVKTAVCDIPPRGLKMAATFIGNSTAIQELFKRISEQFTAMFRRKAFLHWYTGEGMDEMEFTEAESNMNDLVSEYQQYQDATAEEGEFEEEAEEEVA
UniProt Q3ZCM7: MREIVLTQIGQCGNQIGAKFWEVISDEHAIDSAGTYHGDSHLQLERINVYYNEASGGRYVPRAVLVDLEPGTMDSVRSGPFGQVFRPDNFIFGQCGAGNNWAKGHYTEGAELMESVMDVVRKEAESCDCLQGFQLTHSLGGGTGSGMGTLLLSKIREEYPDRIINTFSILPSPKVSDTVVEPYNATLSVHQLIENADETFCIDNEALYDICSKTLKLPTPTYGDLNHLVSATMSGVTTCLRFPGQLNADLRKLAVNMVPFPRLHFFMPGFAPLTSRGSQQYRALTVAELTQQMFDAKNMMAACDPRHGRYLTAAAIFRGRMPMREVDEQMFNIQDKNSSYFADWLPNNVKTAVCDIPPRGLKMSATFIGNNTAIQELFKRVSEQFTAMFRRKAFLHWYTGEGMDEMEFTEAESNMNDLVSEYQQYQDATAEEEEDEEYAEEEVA
UniProt P07437: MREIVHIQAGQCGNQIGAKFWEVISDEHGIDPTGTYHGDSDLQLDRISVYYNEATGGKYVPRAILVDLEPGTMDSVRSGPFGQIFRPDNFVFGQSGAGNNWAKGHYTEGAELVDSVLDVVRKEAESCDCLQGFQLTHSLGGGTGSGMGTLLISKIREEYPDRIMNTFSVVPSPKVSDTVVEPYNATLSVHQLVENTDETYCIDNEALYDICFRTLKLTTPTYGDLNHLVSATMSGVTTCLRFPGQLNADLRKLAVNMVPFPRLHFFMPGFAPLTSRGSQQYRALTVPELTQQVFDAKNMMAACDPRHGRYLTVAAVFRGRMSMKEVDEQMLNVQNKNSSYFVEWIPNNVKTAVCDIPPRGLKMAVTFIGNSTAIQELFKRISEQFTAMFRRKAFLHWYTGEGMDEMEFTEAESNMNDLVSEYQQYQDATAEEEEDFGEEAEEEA
UniProt P68363: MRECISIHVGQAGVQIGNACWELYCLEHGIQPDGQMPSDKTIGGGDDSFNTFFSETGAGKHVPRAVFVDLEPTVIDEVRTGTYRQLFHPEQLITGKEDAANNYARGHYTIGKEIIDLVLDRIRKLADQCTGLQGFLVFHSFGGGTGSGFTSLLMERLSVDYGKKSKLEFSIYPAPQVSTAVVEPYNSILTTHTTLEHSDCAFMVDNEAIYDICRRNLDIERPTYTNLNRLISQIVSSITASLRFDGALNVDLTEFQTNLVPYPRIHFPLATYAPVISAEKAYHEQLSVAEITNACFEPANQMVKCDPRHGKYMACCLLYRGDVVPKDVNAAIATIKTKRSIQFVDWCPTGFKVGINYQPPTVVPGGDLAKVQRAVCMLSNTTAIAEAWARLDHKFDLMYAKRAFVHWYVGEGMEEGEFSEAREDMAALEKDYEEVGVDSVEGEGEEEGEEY
UniProt Q9BQE3: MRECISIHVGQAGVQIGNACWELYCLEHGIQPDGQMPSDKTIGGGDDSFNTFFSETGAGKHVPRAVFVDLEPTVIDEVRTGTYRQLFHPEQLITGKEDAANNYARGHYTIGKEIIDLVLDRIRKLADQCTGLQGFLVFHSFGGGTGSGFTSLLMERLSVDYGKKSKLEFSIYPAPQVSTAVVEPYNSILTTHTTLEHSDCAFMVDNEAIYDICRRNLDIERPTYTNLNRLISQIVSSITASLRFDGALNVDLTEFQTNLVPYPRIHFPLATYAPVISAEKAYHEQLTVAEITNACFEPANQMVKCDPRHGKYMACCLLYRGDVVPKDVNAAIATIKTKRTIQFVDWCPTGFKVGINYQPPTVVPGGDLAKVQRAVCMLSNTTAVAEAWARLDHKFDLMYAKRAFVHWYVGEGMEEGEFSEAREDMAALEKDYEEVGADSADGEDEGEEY
UniProt Q6PEY2: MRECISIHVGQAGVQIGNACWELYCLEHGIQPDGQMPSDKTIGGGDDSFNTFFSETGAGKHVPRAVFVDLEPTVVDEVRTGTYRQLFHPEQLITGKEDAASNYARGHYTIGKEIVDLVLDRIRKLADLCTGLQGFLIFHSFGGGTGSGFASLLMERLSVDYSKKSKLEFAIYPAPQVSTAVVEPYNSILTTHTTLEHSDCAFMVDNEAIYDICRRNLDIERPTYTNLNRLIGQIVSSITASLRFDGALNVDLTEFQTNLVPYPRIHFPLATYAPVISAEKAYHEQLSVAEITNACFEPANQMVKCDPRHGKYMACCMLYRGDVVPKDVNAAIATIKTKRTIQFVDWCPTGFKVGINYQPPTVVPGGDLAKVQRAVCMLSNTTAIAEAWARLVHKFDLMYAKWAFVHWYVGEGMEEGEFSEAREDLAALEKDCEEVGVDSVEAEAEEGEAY
UniProt Q13885: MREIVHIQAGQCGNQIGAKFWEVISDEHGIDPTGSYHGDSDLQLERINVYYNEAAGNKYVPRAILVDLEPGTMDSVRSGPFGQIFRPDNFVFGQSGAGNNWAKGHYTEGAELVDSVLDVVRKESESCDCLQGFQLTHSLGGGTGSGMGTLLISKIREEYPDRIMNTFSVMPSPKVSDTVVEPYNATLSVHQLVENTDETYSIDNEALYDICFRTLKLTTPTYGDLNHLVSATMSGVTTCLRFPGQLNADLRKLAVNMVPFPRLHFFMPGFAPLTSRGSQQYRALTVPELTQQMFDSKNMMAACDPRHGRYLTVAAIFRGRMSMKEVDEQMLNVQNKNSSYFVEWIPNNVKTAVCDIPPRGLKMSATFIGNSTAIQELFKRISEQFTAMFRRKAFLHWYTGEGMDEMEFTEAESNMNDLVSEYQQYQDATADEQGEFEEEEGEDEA
UniProt Q9BVA1: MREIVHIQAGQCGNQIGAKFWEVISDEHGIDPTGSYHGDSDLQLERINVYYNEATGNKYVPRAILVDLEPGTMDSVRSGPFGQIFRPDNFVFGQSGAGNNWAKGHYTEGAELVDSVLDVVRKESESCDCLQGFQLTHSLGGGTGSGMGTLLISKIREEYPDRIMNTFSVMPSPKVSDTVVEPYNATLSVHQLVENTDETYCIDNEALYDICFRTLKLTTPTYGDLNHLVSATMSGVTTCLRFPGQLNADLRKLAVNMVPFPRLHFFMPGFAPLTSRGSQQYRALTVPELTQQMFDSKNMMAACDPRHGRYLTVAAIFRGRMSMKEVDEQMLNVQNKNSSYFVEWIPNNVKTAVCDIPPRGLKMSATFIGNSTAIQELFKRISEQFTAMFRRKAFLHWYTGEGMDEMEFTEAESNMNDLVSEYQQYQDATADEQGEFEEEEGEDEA
UniProt Q9BUF5: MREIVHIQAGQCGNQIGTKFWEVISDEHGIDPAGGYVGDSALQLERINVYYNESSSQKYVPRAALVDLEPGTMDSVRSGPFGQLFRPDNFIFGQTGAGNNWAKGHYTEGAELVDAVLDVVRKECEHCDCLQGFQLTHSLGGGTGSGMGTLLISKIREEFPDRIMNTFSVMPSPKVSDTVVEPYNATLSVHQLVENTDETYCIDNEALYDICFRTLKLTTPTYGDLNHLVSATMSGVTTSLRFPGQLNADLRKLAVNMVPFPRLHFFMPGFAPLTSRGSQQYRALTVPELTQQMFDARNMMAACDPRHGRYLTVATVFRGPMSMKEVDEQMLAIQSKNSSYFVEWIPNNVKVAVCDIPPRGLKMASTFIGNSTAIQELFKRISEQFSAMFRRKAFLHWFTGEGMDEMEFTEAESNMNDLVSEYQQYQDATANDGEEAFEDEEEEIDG

Target: Tubulin (Homo sapiens) (UniProt P68371+Q9H4B7+P0DPH7+P68366+Q13509+Q71U36+P04350+Q3ZCM7+P07437+P68363+Q9BQE3+Q6PEY2+Q13885+Q9BVA1+Q9BUF5)
Test: Stabilization of microtubules in human QBI293 cells assessed as decrease in alpha-tubulin levels at 1 to 10 uM after 4 hrs by ELISA relative to control
Assay type: cell-based
Design: scale not given: the % may be the effect or the level left
Settings: dose 1-10 µM
Outline: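 QBI293 cells are grown in DMEM with 10% FBS, 2 mM L-glutamine and penicillin/streptomycin, plated at 6 × 10^5 cells/well and incubated overnight. Compound (1 and 10 µM) or DMSO vehicle is given for 4 h. Acetyl- and total α-tubulin in whole-cell extract supernatants are measured by ELISA against standard curves, with protein by BCA. Values are fold-change over DMSO; AcTub is also given relative to 100 nM cevipabulin positive control. Significance is by one-way ANOVA.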

SMILES | Activity [%]
C[C@H](Nc1c(-c2c(F)cc(OCCCN(C)C)cc2F)c(Cl)nc2ncnn12)C(F)(F)F | > 15
C[C@H](Nc1c(-c2c(F)cc(SCCCN(C)C)cc2F)c(Cl)nc2ncnn12)C(F)(F)F | > 15
